Test results published in patent US20050245593A1, “4-Aminomethyl-1-aryl-cyclohexylamine compounds” (published 2005).
Like-named read-outs stand apart in the source and are kept apart here.

By UniProt entry, the sequences of proteins in these tests, tags left out. Where a name states a change or a piece, a line headed by the entry shows the natural chain unless it says otherwise.
UniProt P41146: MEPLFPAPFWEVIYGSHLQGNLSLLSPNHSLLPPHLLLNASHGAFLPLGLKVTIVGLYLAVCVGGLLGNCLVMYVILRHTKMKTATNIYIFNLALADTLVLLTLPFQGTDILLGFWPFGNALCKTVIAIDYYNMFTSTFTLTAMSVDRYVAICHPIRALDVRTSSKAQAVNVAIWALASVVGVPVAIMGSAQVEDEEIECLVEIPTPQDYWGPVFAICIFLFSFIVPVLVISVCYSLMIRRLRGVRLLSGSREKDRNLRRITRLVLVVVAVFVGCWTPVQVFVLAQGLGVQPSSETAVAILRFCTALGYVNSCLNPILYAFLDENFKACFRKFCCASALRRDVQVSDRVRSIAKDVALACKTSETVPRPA
UniProt P35372, whole entry, looked up: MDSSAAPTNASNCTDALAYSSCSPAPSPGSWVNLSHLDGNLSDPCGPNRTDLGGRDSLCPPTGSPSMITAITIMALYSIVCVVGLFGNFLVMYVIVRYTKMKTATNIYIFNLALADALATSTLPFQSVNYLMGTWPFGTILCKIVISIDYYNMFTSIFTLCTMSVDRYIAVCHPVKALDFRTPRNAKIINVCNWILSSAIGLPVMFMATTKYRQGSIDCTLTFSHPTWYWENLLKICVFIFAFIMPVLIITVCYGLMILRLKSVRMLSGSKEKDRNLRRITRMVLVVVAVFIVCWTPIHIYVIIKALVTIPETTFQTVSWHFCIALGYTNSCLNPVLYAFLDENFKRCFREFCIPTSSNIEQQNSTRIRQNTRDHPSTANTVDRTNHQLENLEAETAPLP

Key:
ORL1 receptor = ORL1 receptor (Homo sapiens, UniProt P41146); test: ORL1 receptor binding assay with 3H-nociceptin/orphanin FQ; settings: membranes of recombinant CHO-ORL1 cells; for Ki: read-out: ORL1 Ki, 0.5 nM 3H-nociceptin/orphanin FQ
human μ-opiate receptor = human μ-opiate receptor (Homo sapiens, UniProt P35372); test: μ-opiate receptor binding assay with [3H]-naloxone
mouse = test: Analgesia test in the tail-flick test in the mouse; settings: % of the maximum possible antinociceptive effect
[1] = read-out: μ Ki, CHO-K1 membranes expressing human μ-opiate receptor, Cheng-Prusoff, citrate
[2] = read-out: μ Ki, CHO-K1 membranes expressing human μ-opiate receptor, Cheng-Prusoff

Compound | Ki (ORL1 receptor) [nM] | Ki (human μ-opiate receptor; [2]) [nM] | other results
N-(4-Dimethylamino-4-phenylcyclohexyl)-2-(5-fluoro-2-methyl-1H-indol-3-yl)acetamide citrate [Example 26] | 87 |  | Ki (human μ-opiate receptor; [1]): 120 nM
CN(C)C1(c2ccccc2)CCC(CNC(=O)Cc2c[nH]c3ccccc23)CC1 (centres unmarked) | 20 | 5.2 | 
CN(C)C1(c2ccccc2)CCC(CNC(=O)CCCCCc2c[nH]c3ccccc23)CC1.Cl (centres unmarked) |  |  | Tail flick (mouse, i.v.) % inhibition (mouse; dose 10 mg/kg): 100%
N-(4-Dimethylamino-4-phenylcyclohexylmethyl)-2-(1H-indol-3-yl)propionamide hydrochloride | 59 | 2.6 | Tail flick (mouse, i.v.) % inhibition (mouse; dose 10 mg/kg): 97%
CN(C)C1(c2ccccc2)CCC(CNC(=O)CCCCCc2c[nH]c3ccccc23)CC1 (centres unmarked) | 6.6 | 5.8 | 
N-(4-Dimethylamino-4-phenylcyclohexyl)-2-(5-fluoro-2-methyl-1H-indol-3-yl)acetamide citrate [Example 25] |  |  | ORL1 % inhibition [1 μM] (ORL1 receptor; c=1 μM): 68%; Ki (human μ-opiate receptor; [1]): 36 nM
CN(C)C1(c2ccccc2)CCC(CNC(=O)NCCc2c[nH]c3ccccc23)CC1 (centres unmarked) |  | 11 | Ki (human μ-opiate receptor; read-out: μ Ki, CHO-K1 membranes expressing human μ-opiate receptor, Cheng-Prusoff, hydrochloride): 1 nM
CN(C)C1(c2ccccc2)CCC(CNC(=O)CCCCc2c[nH]c3ccccc23)CC1.Cl (centres unmarked) |  |  | Tail flick (mouse, i.v.) % inhibition (mouse; dose 10 mg/kg): 52%
CN(C)C1(c2ccccc2)CCC(CNC(=O)Cc2c[nH]c3ccccc23)CC1.Cl (centres unmarked) |  |  | Tail flick (mouse, i.v.) % inhibition (mouse; dose 3.16 mg/kg): 70%
CN(C)C1(c2ccccc2)CCC(CNC(=O)NCCc2c[nH]c3ccccc23)CC1 (single isomer, unassigned) | 37 |  | Ki (ORL1 receptor; hydrochloride): 7.9 nM
CN(C)C1(c2ccccc2)CCC(CNC(=O)CCCCc2c[nH]c3ccccc23)CC1 (centres unmarked) | 27 | 15 | 
